Laboratory results taken from patent publication US11713344B2 (DONG-A ST CO., LTD., priority 2017, dated 2023).

Protein sequences, listed by entry. Tags and fused reporters are not part of them. Residues count along the entry.
UniProt P43220, 24-463: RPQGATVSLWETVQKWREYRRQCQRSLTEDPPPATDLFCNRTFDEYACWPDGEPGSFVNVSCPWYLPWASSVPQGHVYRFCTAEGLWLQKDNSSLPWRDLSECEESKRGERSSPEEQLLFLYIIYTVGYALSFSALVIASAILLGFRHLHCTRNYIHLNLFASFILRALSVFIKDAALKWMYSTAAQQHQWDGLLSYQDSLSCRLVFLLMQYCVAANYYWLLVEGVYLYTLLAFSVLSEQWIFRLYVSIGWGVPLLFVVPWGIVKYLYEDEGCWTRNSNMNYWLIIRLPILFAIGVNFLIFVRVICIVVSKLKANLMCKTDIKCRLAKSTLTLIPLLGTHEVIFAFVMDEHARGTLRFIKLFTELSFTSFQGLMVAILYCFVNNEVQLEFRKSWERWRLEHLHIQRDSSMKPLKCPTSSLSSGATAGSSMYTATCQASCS
UniProt P47871, 26-477: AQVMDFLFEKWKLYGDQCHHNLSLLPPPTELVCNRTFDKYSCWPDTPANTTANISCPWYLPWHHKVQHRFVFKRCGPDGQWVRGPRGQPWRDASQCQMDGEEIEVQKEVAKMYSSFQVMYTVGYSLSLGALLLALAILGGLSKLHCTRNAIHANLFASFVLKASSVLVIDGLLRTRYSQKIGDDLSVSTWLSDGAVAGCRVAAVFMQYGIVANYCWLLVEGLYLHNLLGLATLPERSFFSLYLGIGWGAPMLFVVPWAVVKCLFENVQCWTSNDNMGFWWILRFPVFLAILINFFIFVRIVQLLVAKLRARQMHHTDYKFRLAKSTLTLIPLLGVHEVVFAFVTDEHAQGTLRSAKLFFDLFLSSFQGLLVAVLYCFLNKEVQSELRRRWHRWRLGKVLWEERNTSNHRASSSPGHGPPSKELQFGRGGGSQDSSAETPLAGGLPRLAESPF

Experiments:
[1] = molecular target: Human GLP-1 receptors (Homo sapiens, UniProt P43220); assay: GLP-1 receptor activation assay (CRE-luciferase reporter, CHO-K1)
[2] = molecular target: Human glucagon receptors (Homo sapiens, UniProt P47871); assay: Glucagon receptor activation assay (CRE-luciferase reporter, CHO-K1)

Row | Compound | EC50 [1] [nM] | EC50 [2] [nM]
1 | CCCCCCCCCCCCCCCCCC(=O)N[C@@H](CCC(=O)NCCOCCOCC(=O)NCCOCCOCC(=O)NCCCC[C@H](NC(=O)[C@H](CC(=O)O)NC(=O)[C@H](CO)NC(=O)[C@@H](NC(=O)[C@H](Cc1ccccc1)NC(=O)[C@@H](NC(=O)CNC(=O)[C@H](CCC(N)=O)NC(=O)C(C)(C)NC(=O)[C@@H](N)Cc1c[nH]cn1)[C@@H](C)O)[C@@H](C)O)C(=O)N[C@@H](CO)C(=O)N[C@@H](CCCCN)C(=O)N[C@@H](Cc1ccc(O)cc1)C(=O)N[C@@H](CC(C)C)C(=O)N[C@@H](CC(=O)O)C(=O)N[C@H]1CCC(=O)Nc2ccc(cc2)NC(=O)CC[C@@H](C(=O)N[C@@H](CC(=O)O)C(=O)N[C@@H](Cc2ccccc2)C(=O)N[C@H](C(=O)N[C@@H](CCC(N)=O)C(=O)N[C@@H](Cc2c[nH]c3ccccc23)C(=O)N[C@@H](CC(C)C)C(=O)N[C@@H](CCSC)C(=O)N[C@@H](CC(N)=O)C(=O)N[C@H](C(=O)N[C@@H](CCCCN)C(=O)O)[C@@H](C)O)C(C)C)NC(=O)[C@H](C)NC(=O)[C@H](CCCNC(=N)N)NC(=O)[C@H](CCCNC(=N)N)NC1=O)C(=O)O [Compound 29, H-HAibQGTFTSDZSKYLDERRAEDFVQWLMNTK-OH] | < 0.01 | < 0.01
2 | CCCCCCCCCCCCCCCCCC(=O)N[C@@H](CCC(=O)NCCOCCOCC(=O)NCCOCCOCC(=O)NCCCC[C@H](NC(=O)[C@H](CC(=O)O)NC(=O)[C@H](CO)NC(=O)[C@@H](NC(=O)[C@H](Cc1ccccc1)NC(=O)[C@@H](NC(=O)CNC(=O)[C@H](CCC(N)=O)NC(=O)C(C)(C)NC(=O)[C@@H](N)Cc1c[nH]cn1)[C@@H](C)O)[C@@H](C)O)C(=O)N[C@@H](CO)C(=O)N[C@@H](CCCCN)C(=O)N[C@@H](Cc1ccc(O)cc1)C(=O)N[C@@H](CC(C)C)C(=O)N[C@@H](CC(=O)O)C(=O)N[C@H]1CCC(=O)Nc2ccc(cc2)C(=O)NCCCC[C@@H](C(=O)N[C@@H](CC(=O)O)C(=O)N[C@@H](Cc2ccccc2)C(=O)N[C@H](C(=O)N[C@@H](CCC(N)=O)C(=O)N[C@@H](Cc2c[nH]c3ccccc23)C(=O)N[C@@H](CC(C)C)C(=O)N[C@@H](CCSC)C(=O)N[C@@H](CC(N)=O)C(=O)N[C@H](C(=O)N[C@@H](CCCCN)C(=O)O)[C@@H](C)O)C(C)C)NC(=O)[C@H](C)NC(=O)[C@H](CCCNC(=N)N)NC(=O)[C@H](CCCNC(=N)N)NC1=O)C(=O)O [Compound 34, H-HAi bQGTFTSDZSKYLDERRAKDFVQWLMNTK-OH] | < 0.01 | < 0.01
